Reference: PMC6593233 (Frontiers in Pharmacology, 2019)

Sequences of proteins named here, by UniProt entry; tags and fusion partners are left off. A change or cut given only in a name is not applied to a line headed by its entry.
UniProt Q12809: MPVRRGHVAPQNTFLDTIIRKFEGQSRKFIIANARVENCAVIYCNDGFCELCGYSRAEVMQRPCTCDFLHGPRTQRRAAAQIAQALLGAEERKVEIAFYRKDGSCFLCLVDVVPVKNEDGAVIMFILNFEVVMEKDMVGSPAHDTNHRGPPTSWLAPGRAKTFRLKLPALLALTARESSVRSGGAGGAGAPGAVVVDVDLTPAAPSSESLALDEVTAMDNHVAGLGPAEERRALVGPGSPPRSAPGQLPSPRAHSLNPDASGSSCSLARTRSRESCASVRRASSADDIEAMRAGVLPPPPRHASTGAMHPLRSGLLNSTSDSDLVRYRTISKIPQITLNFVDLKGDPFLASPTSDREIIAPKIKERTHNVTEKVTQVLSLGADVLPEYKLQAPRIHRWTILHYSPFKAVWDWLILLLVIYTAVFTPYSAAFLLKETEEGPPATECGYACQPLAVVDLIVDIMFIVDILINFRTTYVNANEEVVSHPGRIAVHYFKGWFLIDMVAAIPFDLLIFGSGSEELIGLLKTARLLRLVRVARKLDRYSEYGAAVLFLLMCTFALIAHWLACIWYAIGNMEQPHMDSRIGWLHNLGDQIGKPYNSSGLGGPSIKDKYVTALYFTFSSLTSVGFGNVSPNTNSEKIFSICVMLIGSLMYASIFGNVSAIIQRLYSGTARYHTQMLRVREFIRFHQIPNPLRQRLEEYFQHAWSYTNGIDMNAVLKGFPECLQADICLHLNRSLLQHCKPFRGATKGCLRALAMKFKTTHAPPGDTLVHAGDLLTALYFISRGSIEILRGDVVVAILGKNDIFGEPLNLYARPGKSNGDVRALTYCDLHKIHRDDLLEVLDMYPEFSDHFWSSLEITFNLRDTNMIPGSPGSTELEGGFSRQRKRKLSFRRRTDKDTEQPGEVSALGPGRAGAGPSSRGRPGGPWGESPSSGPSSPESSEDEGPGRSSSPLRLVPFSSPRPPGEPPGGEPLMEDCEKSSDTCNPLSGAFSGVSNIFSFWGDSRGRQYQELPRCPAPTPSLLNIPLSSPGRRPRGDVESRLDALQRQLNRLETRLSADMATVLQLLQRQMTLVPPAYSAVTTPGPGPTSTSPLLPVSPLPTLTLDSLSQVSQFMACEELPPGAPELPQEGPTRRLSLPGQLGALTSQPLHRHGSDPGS

Molecular target: T1, hKv11.1 (Homo sapiens, UniProt Q12809)
T1 construct: expressed in transfected cells
Test: Automated patch clamp (QPatch), IKr in CHO-K1 cells stably expressing Kv11.1
Type: cell-based
Conditions: hKv11.1, automated patch clamp, present study

Cc1nccn1CC1CCc2c(c3ccccc3n2C)C1=O (stereo not shown) [Ondansetron]
IC50: 2.79 µM
